miR-122 sensor – inhibitors of miR-122 in Huh7 cells; Huh7 miR-122 Renilla luciferase sensor, 48 h; neutral wells = 0, positive control = 100; activation (reporter increase), % at 12.5 µM; 340,000 tested, 0.3% active;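 active = mean replicate activation score at least 90 and every replicate individually at or above 90; inconclusive = only one of the two criteria met; inactive = neither criterion met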;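 note: higher luciferase means less miR-122 activity so hits act as miR-122 inhibitors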
UUG fidelity – modulators of start codon recognition fidelity in yeast; AID 602363; hit rate 0.13% among 350,000; activity score, % at 18.7 µM; S. cerevisiae UUG-firefly luciferase reporter, luminescence/redox ratio;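 active = replicate mean at a twofold rise or more, about +100% in these data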;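 note: firefly luciferase made from a UUG start codon reports start codon fidelity; reporter light over untreated wells divided by growth signal over untreated wells; some hits fall short of that in this replicate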
esBAF inh – blocks esBAF chromatin remodeling in mouse ES cells. reporter increase, % at 12.5 µM. 350,000 tested, 2% active. Bmi1-luciferase knock-in reporter, 24 h; 100% = twice the neutral-well signal; in the data active = activation above about 40%; inconclusive = no clear call, values can overlap the other calls;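 note: 0% = median of the plate's neutral control wells and 100% = double that signal; a rise in the Bmi1 reporter signal indicates esBAF inhibition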
MITF TRPM1 HTS – activators of MITF-driven TRPM1 promoter activity in SK-MEL-5 cells | SK-MEL-5 TRPM1-promoter luciferase, 24 h; % of positive control, neutral wells = 0 | 300,000 tested, 0.75% active | activation, % at 12.5 µM;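 active = mean activation of at least 80% with every replicate also reaching 80%; inconclusive = mean reaches 80% but some replicate falls short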;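 note: 0% = neutral control wells and 100% = parthenolide positive control wells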
PglD DTNB – inhibitors of Campylobacter jejuni PglD acetyltransferase; purified PglD enzyme, DTNB colorimetric CoA detection; inhibition, % at 12.5 µM; 360,000 tested, 0.098% active; AID 602405; in the data active = inhibition above about 16%, passing the limit was not always enough; inconclusive = no clear call, values can overlap the other calls
Wnt act – activators of Wnt/beta-catenin signaling. 300,000 tested, 1.2% active. Wnt/beta-catenin reporter cell assay, activator, plate reader. activation, % at 9.35 µM. AID 743398; in the data active = activation above about 30%, passing the limit was not always enough; inconclusive = no clear call, values can overlap the other calls;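 note: 0% = neutral control wells and 100% = positive control wells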
The depositor's hits bear a star; ? = inconclusive; nt = no result; [ ] = dose if it differs, or a comment. Only some compounds are listed: those with a hit (about 2.8% of all), similar ones and a draw of the others.

| # | canonical_smiles | miR-122 sensor | UUG fidelity | esBAF inh |
| --- | --- | --- | --- | --- |
| 1 | O=C(Nc1nc2ccccc2s1)c1c(F)cccc1Cl | -6 | -22 | 52* |
| 2 | Cc1noc(C)c1S(=O)(=O)Nc1ccc2c(c1)CC(=O)N([C@H](C)CO)C[C@@H](C)[C@H](CN(C)CC1CC1)O2 | 17[16.7 µM] | 16 | 0 |
| 3 | CCCNC(=O)[C@@H]1[C@@H](CO)[C@@H]2Cn3c(ccc(-c4cccc(F)c4)c3=O)[C@@H]2N1C(=O)CC | 0[16.7 µM] | nt | 3 |
| 4 | O=C(N[C@@H]1CC[C@H](CCNC(=O)C2CCC2)O[C@@H]1CO)c1ccncc1 | nt | 19 | 1 |
| 5 | Cc1c(OCc2ccccc2)c(=O)ccn1Cc1ccccc1 | -6 | nt | 56* |
| 6 | COc1cccc(C(=O)/C=C/Nc2cccc(O)c2)c1 | nt | -71 | -41 |
| 7 | O=C(/C=C/Nc1ccc(Br)cn1)c1cccc(OC(F)F)c1 | 2 | -10 | 68* |
| 8 | COc1ccccc1/C=N/NC(=O)c1csc(C)c1C | -3 | -9 | nt |

| # | MITF TRPM1 HTS | PglD DTNB | Wnt act |
| --- | --- | --- | --- |
| 1 | 43 | -1 | 7 |
| 2 | nt | 7 | nt |
| 3 | nt | 0 | nt |
| 4 | nt | 3 | nt |
| 5 | 56 | nt | nt |
| 6 | -3 | 8 | 1 |
| 7 | 93* | -3 | 15 |
| 8 | 19 | 6 | 9 |

(next part)
| # | canonical_smiles | miR-122 sensor | UUG fidelity | esBAF inh |
| --- | --- | --- | --- | --- |
| 9 | Cc1scc(C(=O)N/N=C/c2ccc(OC(C)C)cc2)c1C | 26 | -10 | 47* |
| 10 | CCCCOc1cccc(/C=N/NC(=O)c2csc(C)c2C)c1 | -9 | -5 | 13 |
| 11 | Cc1scc(C(=O)N/N=C/c2ccc(Cl)s2)c1C | -1 | -1 | nt |
| 12 | O=C(Oc1c(CN2CCOCC2)cc(Cl)c2cccnc12)c1cccs1 | -9 | -65 | -10 |
| 13 | O=C(Oc1c(CN2CCOCC2)cc(Cl)c2cccnc12)c1ccccc1Cl | 6 | -36 | 10 |
| 14 | CCCNC(=O)N1C[C@@H](C)[C@@H](OC)CN(C)C(=O)c2ccc(NS(=O)(=O)CC(F)(F)F)cc2OC[C@H]1C | nt | nt | -1 |
| 15 | Cc1ccc(S(=O)(=O)N(C)C[C@H]2Oc3ccc(NC(=O)Cn4cnnn4)cc3CC(=O)N([C@H](C)CO)C[C@H]2C)cc1 | -12[16.7 µM] | 3 | -5 |
| 16 | Cc1cccc(NC(=S)N/N=C/C(C)c2ccccc2)c1C (stereo unspecified) | nt | nt | nt |

| # | MITF TRPM1 HTS | PglD DTNB | Wnt act |
| --- | --- | --- | --- |
| 9 | 53 | -3 | nt |
| 10 | 24 | -6 | nt |
| 11 | 44 | 1 | 58* |
| 12 | -71 | -1 | 47* |
| 13 | -75 | 1 | 1 |
| 14 | nt | nt | nt |
| 15 | nt | -1 | nt |
| 16 | -4 | nt | 34* |

Remaining list, next part
| # | canonical_smiles | miR-122 sensor | UUG fidelity | esBAF inh |
| --- | --- | --- | --- | --- |
| 17 | Cc1ccccc1NC(=S)N/N=C/C(C)c1ccccc1 (stereo unspecified) | -8 | -18 | 10 |
| 18 | CC1(C)CC(=O)C2=C(C1)Nc1ccccc1NC2c1ccc2c(c1)OCO2 (stereo unspecified) | 3 | -3 | 18 |
| 19 | O=C(CCCOc1ccccc1)N1CCN(c2ccccc2)CC1 | -6 | 5 | 28 |
| 20 | O=C(CCOc1ccccc1)N1CCN(c2ccc(O)cc2)CC1 | -14 | -5 | 4 |
| 21 | O=C(CNc1ccc2ccccc2c1)N/N=C/c1ccc(OC(=O)/C=C/c2ccco2)cc1 | nt | nt | nt |
| 22 | O=C(CNc1cccc2ccccc12)N/N=C/c1ccc(OC(=O)/C=C/c2ccco2)cc1 | 1 | -38 | 0 |
| 23 | O=C(CCC1CCCC1)Nc1ccc(Br)cn1 | -5 | -3 | 55* |
| 24 | O=C(CC1CCCC1)Nc1ccc(Br)cc1 | -5 | -5 | 67* |

| # | MITF TRPM1 HTS | PglD DTNB | Wnt act |
| --- | --- | --- | --- |
| 17 | 1 | 1 | -2 |
| 18 | nt | 1 | 44* |
| 19 | 57 | -9 | nt |
| 20 | 10 | 5 | 50* |
| 21 | -7 | nt | 51* |
| 22 | -13 | -3 | 19 |
| 23 | ? | 3 | nt |
| 24 | ? | -12 | 18 |

Following part
| # | canonical_smiles | miR-122 sensor | UUG fidelity | esBAF inh |
| --- | --- | --- | --- | --- |
| 25 | Cc1ccnc(NC(=O)CCC2CCCCC2)c1 | -8 | -26 | 49* |
| 26 | Cc1noc(C)c1NC(=O)N(C)C[C@H]1Oc2c(NC(=O)Nc3ccc(C(F)(F)F)cc3)cccc2C(=O)N([C@@H](C)CO)C[C@@H]1C | -5[16.7 µM] | 45 | -1 |
| 27 | C[C@@H]1CCCCO[C@H](CN(C)Cc2ccc3c(c2)OCO3)[C@H](C)CN([C@@H](C)CO)C(=O)c2cc(NS(=O)(=O)c3ccccc3)ccc2O1 | -4[16.7 µM] | 9 | 6 |
| 28 | Nc1c(-c2ccc(Cl)cc2)cnn1-c1cccc([N+](=O)[O-])c1 | 0 | -8 | 64* |
| 29 | Cc1nn(-c2ccccc2)c(N)c1Sc1cccc([N+](=O)[O-])c1 | -2 | 0 | 5 |
| 30 | Nc1c(-c2ccc(Cl)cc2)cnn1-c1cccc(C(F)(F)F)c1 | 1 | -2 | 68* |
| 31 | Cc1ccc(-c2cnn(-c3cccc(C(F)(F)F)c3)c2N)cc1 | -7 | 10 | 87* |
| 32 | Cc1nn(-c2cccc([N+](=O)[O-])c2)c(N)c1-c1ccccc1 | 0 | -15 | 66* |

| # | MITF TRPM1 HTS | PglD DTNB | Wnt act |
| --- | --- | --- | --- |
| 25 | nt | 0 | 9 |
| 26 | nt | -2 | nt |
| 27 | nt | 0 | nt |
| 28 | nt | -5 | nt |
| 29 | 7 | 7 | 2 |
| 30 | 80 | -3 | 13 |
| 31 | nt | -4 | nt |
| 32 | 92* | -2 | 15 |

Next compounds
| # | canonical_smiles | miR-122 sensor | UUG fidelity | esBAF inh |
| --- | --- | --- | --- | --- |
| 33 | Cc1nnc(-c2cnn(-c3ccccc3)c2N)n1Cc1cccc(C(F)(F)F)c1 | 11 | -11 | 9 |
| 34 | Nc1c(-c2ccccc2)cnn1-c1cccc([N+](=O)[O-])c1 | -4 | 0 | ? |
| 35 | C[C@@H]1CN([C@H](C)CO)S(=O)(=O)c2ccc(-c3cccnc3)cc2O[C@@H]1CN(C)CC1CC1 | 3[16.7 µM] | 2 | -3 |
| 36 | Cc1ccc(NC(=S)Nc2cccc3cnccc23)cc1 | 8 | -29 | 68* |
| 37 | Cc1ccc(NC(=S)Nc2cccc3cnccc23)cc1C | -12 | -12 | 46* |
| 38 | Cc1noc(C)c1NC(=O)N[C@H]1CC[C@H](CC(=O)Nc2ccccc2)O[C@@H]1CO | nt | -12 | -2 |
| 39 | O=[N+]([O-])c1cccc(-c2noc(-c3cccs3)n2)c1 | nt | nt | nt |
| 40 | CCCCC(=O)N1CCN(c2nc3ccc(Cl)cc3s2)CC1 | -6 | -29 | 50* |

| # | MITF TRPM1 HTS | PglD DTNB | Wnt act |
| --- | --- | --- | --- |
| 33 | nt | -8 | nt |
| 34 | 51 | 4 | ? |
| 35 | nt | -2 | nt |
| 36 | -11 | 3 | 26 |
| 37 | 11 | -1 | -1 |
| 38 | nt | 1 | nt |
| 39 | 49 | nt | 48* |
| 40 | 57 | 5 | 16 |

(list continues)
| # | canonical_smiles | miR-122 sensor | UUG fidelity | esBAF inh |
| --- | --- | --- | --- | --- |
| 41 | CCCN1CCN(CCCNC(=O)c2ccc3nc(N4CCCCC4)sc3c2)CC1 | -10 | -7 | 77* |
| 42 | CCC1CCCCN1CCCNC(=O)c1ccc2nc(N3CCCCC3)sc2c1 (stereo unspecified) | 2 | -10 | ? |
| 43 | CC1CCCC(C)N1CCCNC(=O)c1ccc2nc(N3CCOCC3)sc2c1 (stereo unspecified) | 4 | 1 | -2 |
| 44 | CC1CC(C)CN(CCCNC(=O)c2ccc3nc(N4CCCCC4)sc3c2)C1 (stereo unspecified) | -3 | -6 | 55* |
| 45 | C/C(Cn1cnc([N+](=O)[O-])n1)=N\NC(=O)c1ccccc1 | -6 | -6 | 44* |
| 46 | COc1ccc(S(=O)(=O)N(C)C[C@H]2Oc3ccc(NC(=O)Nc4ccc(C(F)(F)F)cc4)cc3C(=O)N([C@H](C)CO)C[C@H]2C)cc1 | 136*[16.7 µM] | -8 | 1 |
| 47 | COc1ccc(S(=O)(=O)N(C)C[C@@H]2Oc3ccc(NC(=O)Nc4ccc(C(F)(F)F)cc4)cc3C(=O)N([C@@H](C)CO)C[C@@H]2C)cc1 | -7[16.7 µM] | -5 | -3 |
| 48 | COc1ccc(S(=O)(=O)N(C)C[C@H]2Oc3ccc(NC(=O)Nc4ccc(C(F)(F)F)cc4)cc3C(=O)N([C@@H](C)CO)C[C@H]2C)cc1 | 111*[16.7 µM] | -5 | 1 |
| 49 | Cc1ccc(C(=O)CC(SCC(=O)O)c2ccc([N+](=O)[O-])cc2)cc1 (stereo unspecified) | nt | nt | nt |
| 50 | COc1ccc(C(CC(=O)c2ccc(C)cc2)Sc2ccccc2N)cc1 (stereo unspecified) | 3 | -29 | 60* |

| # | MITF TRPM1 HTS | PglD DTNB | Wnt act |
| --- | --- | --- | --- |
| 41 | 22 | -4 | -1 |
| 42 | ? | 1 | -1 |
| 43 | 4 | -5 | -1 |
| 44 | nt | -1 | -4 |
| 45 | nt | -2 | 10 |
| 46 | nt | -2 | nt |
| 47 | nt | 1 | nt |
| 48 | nt | -4 | nt |
| 49 | 14 | nt | 90* |
| 50 | nt | -2 | 47* |

4 entries from above, ordered by SMILES length, smallest number first:
| # | canonical_smiles | miR-122 sensor | UUG fidelity | esBAF inh |
| --- | --- | --- | --- | --- |
| 42 | CCC1CCCCN1CCCNC(=O)c1ccc2nc(N3CCCCC3)sc2c1 (stereo unspecified) | 2 | -10 | ? |
| 43 | CC1CCCC(C)N1CCCNC(=O)c1ccc2nc(N3CCOCC3)sc2c1 (stereo unspecified) | 4 | 1 | -2 |
| 41 | CCCN1CCN(CCCNC(=O)c2ccc3nc(N4CCCCC4)sc3c2)CC1 | -10 | -7 | 77* |
| 48 | COc1ccc(S(=O)(=O)N(C)C[C@H]2Oc3ccc(NC(=O)Nc4ccc(C(F)(F)F)cc4)cc3C(=O)N([C@@H](C)CO)C[C@H]2C)cc1 | 111*[16.7 µM] | -5 | 1 |

| # | MITF TRPM1 HTS | PglD DTNB | Wnt act |
| --- | --- | --- | --- |
| 42 | ? | 1 | -1 |
| 43 | 4 | -5 | -1 |
| 41 | 22 | -4 | -1 |
| 48 | nt | -4 | nt |
